Our source for the EC50 values is patent publication US9901621B2, “Composition for treating hyperlipidemia comprising oxyntomodulin derivative” (HANMI PHARM. CO., LTD., priority 2012, dated 2018).

Chains of the proteins cited; added tags and fusions are not shown. Residues count along the entry.
UniProt P43220, 24-463: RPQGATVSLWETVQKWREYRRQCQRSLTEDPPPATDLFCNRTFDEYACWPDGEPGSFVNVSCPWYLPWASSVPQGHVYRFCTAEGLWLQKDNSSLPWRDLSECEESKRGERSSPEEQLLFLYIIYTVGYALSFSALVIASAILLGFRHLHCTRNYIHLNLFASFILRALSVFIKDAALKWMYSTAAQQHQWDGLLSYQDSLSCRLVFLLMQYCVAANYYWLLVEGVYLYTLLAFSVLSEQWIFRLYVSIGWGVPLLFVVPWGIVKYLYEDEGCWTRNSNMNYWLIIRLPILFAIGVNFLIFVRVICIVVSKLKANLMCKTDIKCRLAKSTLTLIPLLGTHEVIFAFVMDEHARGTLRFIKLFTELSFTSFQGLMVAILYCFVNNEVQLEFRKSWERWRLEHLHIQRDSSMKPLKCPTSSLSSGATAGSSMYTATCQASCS
UniProt P47871, 26-477: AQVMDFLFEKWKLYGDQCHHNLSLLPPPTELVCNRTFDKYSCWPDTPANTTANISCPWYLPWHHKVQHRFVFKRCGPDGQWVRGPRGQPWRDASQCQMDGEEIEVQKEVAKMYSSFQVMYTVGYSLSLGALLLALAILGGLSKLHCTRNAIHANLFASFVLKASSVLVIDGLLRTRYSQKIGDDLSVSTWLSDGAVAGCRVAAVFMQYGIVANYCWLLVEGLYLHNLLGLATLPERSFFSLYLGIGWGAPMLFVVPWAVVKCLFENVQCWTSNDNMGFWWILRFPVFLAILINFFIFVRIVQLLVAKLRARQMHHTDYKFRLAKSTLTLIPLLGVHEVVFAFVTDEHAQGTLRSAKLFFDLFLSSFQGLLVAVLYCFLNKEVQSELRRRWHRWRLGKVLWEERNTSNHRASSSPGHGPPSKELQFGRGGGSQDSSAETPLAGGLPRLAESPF

The target in one assay is T1, human GLP-1 receptor (Homo sapiens, UniProt P43220).
T1 construct: Using a portion corresponding to the ORF (open reading frame) of cDNA; expressed in transfected cells; host or cells: CHO DG44
Put plainly: cAMP response in CHO cells expressing GLP-1 receptor (CHO/GLP-1R). In kind it is cell-based. How it is done: The PCR product was cloned into the known animal cell expression vector x0GC/dhfr, thereby constructing the recombinant vector x0GC/GLP-1R.
The recombinant vector x0GC/GLP-1R was introduced into a CHO DG44 cell line, cultured in DMEM/F12 (10% FBS) medium, using lipofectamine (Invitrogene, USA), to obtain a transformant. The transformant was incubated in a selective medium containing 1 mg/mL G418 and 10 nM methotraxate, and monoclonal cell lines were selected therefrom.
(§1) The cultured cells were washed with KRB buffer, suspended in 40 ml of 1 mM IBMX-containing KRB buffer, and then allowed to stand at room temperature for 5 minutes. […] Then, 20 ml of cell lysis buffer was added to lyse the cells, and the concentration of cAMP in each of the cell lysates was measured using a cAMP assay kit (Molecular Device, USA).

The target of another assay is T2, human glucagon receptor (Homo sapiens, UniProt P47871).
T2 construct: Using a portion corresponding to the ORF (open reading frame) of cDNA; expressed in transfected cells; host or cells: CHO DG44
The experiment in a line: cAMP response in CHO cells expressing glucagon receptor (CHO/GCGR). In kind it is cell-based. How it is done:
The PCR product was cloned into the known animal cell expression vector x0GC/dhfr, thereby constructing the recombinant vector x0GC/GCGR.
The recombinant vector x0GC/GCGR was introduced into a CHO DG44 cell line, cultured in DMEM/F12 (10% FBS) medium, using lipofectamine (Invitrogene, USA), to obtain a transformant. The transformant was incubated in a selective medium containing 1 mg/mL G418 and 10 nM methotraxate, and monoclonal cell lines were selected therefrom.
as §1

For orientation: EC50 means the concentration giving half of the maximal effect. Read a high EC50 as lower potency in that assay. Turning to `CC[C@H](C)[C@H](NC(=O)[C@H](CC(N)=O)NC(=O)[C@H](CC(N)=O)NC(=O)[C@H](CCCNC(=N)N)NC(=O)[C@H](CC(N)=O)NC(=O)[C@H](CCCNC(=N)N)NC(=O)[C@H](CCCCN)NC(=O)[C@@H](NC(=O)[C@H](CC(N)=O)NC(=O)[C@H](CCCNC(=N)N)NC(=O)[C@@H](NC(=O)[C@H](Cc1c[nH]c2ccccc12)NC(=O)[C@H](CCC(=O)O)NC(=O)[C@@H](NC(=O)[C@H](Cc1ccccc1)NC(=O)[C@H](CC(C)C)NC(=O)[C@H](CCCNC(=N)N)NC(=O)[C@@H](NC(=O)[C@H](C)NC(=O)[C@H](CCC(=O)O)NC(=O)[C@H](CCC(=O)O)NC(=O)[C@H](CC(=O)O)NC(=O)[C@H](CC(C)C)NC(=O)[C@H](Cc1ccc(O)cc1)NC(=O)[C@H](CCCNC(=N)N)NC(=O)[C@H](CO)NC(=O)[C@H](Cc1ccc(O)cc1)NC(=O)[C@H](CC(=O)O)NC(=O)[C@H](CO)NC(=O)[C@@H](NC(=O)[C@H](Cc1ccccc1)NC(=O)[C@@H](NC(=O)CNC(=O)[C@H](CCC(N)=O)NC(=O)[C@H](CO)NC(=O)Cc1c[nH]cn1)[C@@H](C)O)[C@@H](C)O)C(C)C)[C@@H](C)CC)[C@@H](C)CC)[C@@H](C)O)C(=O)N[C@@H](C)C(=O)O` [SEQ ID NO: 17], the values for the EC50 at human GLP-1 receptor and at human glucagon receptor were 97.9 nM and above 1000 nM, respectively.

For `CC[C@H](C)[C@H](NC(=O)[C@H](CC(N)=O)NC(=O)[C@H](CC(N)=O)NC(=O)[C@H](CCCNC(=N)N)NC(=O)[C@H](CC(N)=O)NC(=O)[C@H](CCCNC(=N)N)NC(=O)[C@H](CCCCN)NC(=O)[C@@H](NC(=O)[C@H](CC(N)=O)NC(=O)[C@H](CCSC)NC(=O)[C@H](CC(C)C)NC(=O)[C@H](Cc1c[nH]c2ccccc12)NC(=O)[C@H](CCC(=O)O)NC(=O)[C@@H](NC(=O)[C@H](Cc1ccccc1)NC(=O)[C@H](CC(C)C)NC(=O)[C@H](CCCNC(=N)N)NC(=O)[C@@H](NC(=O)[C@H](C)NC(=O)[C@H](CCC(=O)O)NC(=O)[C@H](CCC(=O)O)NC(=O)[C@H](CC(=O)O)NC(=O)[C@H](CC(C)C)NC(=O)[C@H](Cc1ccc(O)cc1)NC(=O)[C@H](CCCCN)NC(=O)[C@H](CO)NC(=O)[C@H](Cc1ccc(O)cc1)NC(=O)[C@H](CC(=O)O)NC(=O)[C@H](CO)NC(=O)[C@@H](NC(=O)[C@H](Cc1ccccc1)NC(=O)[C@@H](NC(=O)CNC(=O)[C@H](CCC(N)=O)NC(=O)[C@H](CO)NC(=O)Cc1c[nH]cn1)[C@@H](C)O)[C@@H](C)O)C(C)C)[C@@H](C)CC)[C@@H](C)O)C(=O)N[C@@H](C)C(=O)O` [SEQ ID NO: 2], the figures for the EC50 at human GLP-1 receptor and on human glucagon receptor were 51.8 nM and 12.8 nM, respectively.

Turning to `CC(C)C[C@H](NC(=O)[C@H](Cc1c[nH]c2ccccc12)NC(=O)[C@H](C)NC(=O)[C@@H](NC(=O)[C@H](Cc1ccccc1)NC(=O)[C@H](CC(=O)O)NC(=O)[C@H](CCC(N)=O)NC(=O)[C@H](C)NC(=O)[C@H](CCCNC(=N)N)NC(=O)[C@H](CCCNC(=N)N)NC(=O)[C@H](CCC(=O)O)NC(=O)[C@H](CC(=O)O)NC(=O)[C@H](CC(C)C)NC(=O)[C@H](Cc1ccc(O)cc1)NC(=O)[C@H](CCCCN)NC(=O)[C@H](CO)NC(=O)[C@H](Cc1ccc(O)cc1)NC(=O)[C@H](CC(=O)O)NC(=O)[C@H](CO)NC(=O)[C@@H](NC(=O)[C@H](Cc1ccccc1)NC(=O)[C@@H](NC(=O)CNC(=O)[C@H](CCC(N)=O)NC(=O)[C@H](CO)NC(=O)Cc1c[nH]cn1)[C@@H](C)O)[C@@H](C)O)C(C)C)C(=O)N[C@@H](CCCCN)C(=O)N[C@@H](CC(N)=O)C(=O)N[C@H](C(=O)NCC(=O)N1CCC[C@H]1C(=O)N[C@@H](CO)C(=O)N[C@@H](CO)C(=O)NCC(=O)N[C@@H](C)C(=O)N1CCC[C@H]1C(=O)N1CCC[C@H]1C(=O)N1CCC[C@H]1C(=O)N[C@@H](CO)C(=O)O)[C@@H](C)O` [SEQ ID NO: 3], the EC50 is above 1000 nM on human GLP-1 receptor and 638 nM at human glucagon receptor.
